Rows were chosen to be rich in hits. Some 1.3% of all compounds tested hit in one or more screens of this group.
UUG fidelity: modulators of start codon recognition fidelity in yeast; AID 602363; activity score, % at 18.7 µM; S. cerevisiae UUG-firefly luciferase reporter, luminescence/redox ratio; actives 0.13% (n = 350,000);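 active = replicate mean at a twofold rise or more, about +100% in these data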;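 note: firefly luciferase made from a UUG start codon reports start codon fidelity; reporter light over untreated wells divided by growth signal over untreated wells; some hits fall short of that in this replicate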
miR122 inh: miR-122 Renilla sensor signal increase in Huh7, primary screen, miR-122 inhibitor project, cell-based, single point, plate reader | activation (reporter increase), % at 12.5 µM | Huh7 miR-122 Renilla luciferase sensor, 48 h; neutral wells = 0, positive control = 100 | 340,000 tested, 0.3% active;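 active = mean replicate activation score at least 90 and every replicate individually at or above 90; inconclusive = only one of the two criteria met; inactive = neither criterion met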;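 also: higher luciferase means less miR-122 activity so hits act as miR-122 inhibitors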
EWS-Fli inh: EWS/Fli-driven NR0B1 reporter inhibitors, primary screen, A673 cells, NR0B1 luciferase, luminescence, MLPCN library. viability-normalised. inhibition, % at 12.6 µM. 350,000 tested, 0.67% active. AID 651661, 2012;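 active = mean inhibition of at least 50% after viability correction, with every replicate also passing that limit; inconclusive = mean reaches 50% but only one of two replicates passes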;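 also: firefly luciferase signal divided by Alamar Blue viability fluorescence both relative to DMSO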
F508del corr: F508del CFTR correction, initial screen, CFBE line, single point | activity (quench increase), % at 7.58 µM | CFBE cells, YFP halide quenching; stimulated with forskolin plus potentiator P3; % fluorescence drop versus neutral controls | 350,000 tested, 0.36% active;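 active = mean added fluorescence quench of at least 8% versus neutral control, with both replicates also reaching 8%; inconclusive = only one of the mean or replicate conditions met; inactive = mean below 8% and not both replicates reaching 8%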;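 also: cells transiently co-express mutant CFTR-F508del with the halide-sensitive YFP; corrector assay measuring rescue of mutant channel to the surface after 24 h compound exposure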
LGR2 inh: inhibitors of bursicon-induced LGR2 CRE-luciferase signal, primary screen, cell-based, HEK293, CRE-luciferase reporter, bursicon stimulation | 380,000 tested, 0.35% active | Drosophila bursicon receptor LGR2 (rickets) | inhibition, % at 9.99 µM | AID 720647, 2013 | bursicon-stimulated, 4 h;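 active = drop in luminescence signal, shown as inhibition above about 50% in the replicate tests, limit read from the data, passing the limit was not always enough; inconclusive = probably only some replicates passing the limit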;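 also: agonist challenge used bursicon conditioned medium at about half maximal strength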
PglD inh: C. jejuni PglD acetyltransferase inhibitors, primary screen, biochemical, DTNB colorimetric, single point; 360,000 tested, 0.098% active; inhibition, % at 12.5 µM; AID 602405, 2012; UDP-N-acetylbacillosamine N-acetyltransferase PglD (Campylobacter jejuni); purified PglD enzyme, DTNB colorimetric CoA detection; in the data active = inhibition above about 16%, passing the limit was not always enough; inconclusive = no clear call, values can overlap the other calls
* hit, by the source's call; ? = inconclusive; . = not tested or not shown; [ ] = remark or other dose.

SMILES | UUG fidelity | miR122 inh | EWS-Fli inh | F508del corr | LGR2 inh | PglD inh
COc1ccc(C=NNC(=S)Nc2ccc(F)cc2)cc1OC | -11 | . | 42 | -3 | 50* | -2
c1ccc2sc(NN=C3CCCCCC3)nc2c1 | . | 12 | 46 | . | 55* | .
COc1ccc(-c2nnc(SCC(=O)NCC3CCCO3)o2)cc1 (configuration not stated) | -13 | 1 | . | 0 | -7 | -1
CCOC(=O)c1ccc(NC(=O)c2nc[nH]c2C(=O)NCCNC(=O)c2[nH]cnc2C(=O)Nc2ccc(C(=O)OCC)cc2)cc1 | -17 | -6 | 60* | 3 | -1 | -2
Cc1cc(O)c(C(C)C)cc1C1(c2cc(C(C)C)c(O)cc2C)OC(=O)c2ccccc21 | -3 | 40 | 29 | 2 | 70* | 5
CC(C)N1C(=O)/C(=C\c2nc3ccccc3c(=O)[nH]2)c2ccccc21 | 1 | . | 14 | 0 | 98* | 0
C/C(CC(=O)Nc1ccc(C)c(Cl)c1)=N\NC(=O)C1CCCCC1 | -15 | . | 1 | 1 | 5 | 1
Cc1cc(C)c(Cc2c(C)nc3c(C(=O)NCc4ccco4)cnn3c2C)c(C)c1 | . | -13 | 34 | ? | 56* | .
COc1ccc(/C=N/N2CCN(c3ccccc3)CC2)cc1Br | -9 | -6 | -12 | 8 | 5 | -1
O=C(/C=C/Nc1ccc(Br)cc1F)c1ccccc1 | . | . | 74* | 2 | . | .
Cn1ncc(Cl)c1C(=O)N1CCOCC1 | . | 0 | -10 | 2 | 11 | .
N#C[C@H]1[C@H](c2ccc(C#CC3CC3)cc2)[C@@H](CO)N1C(=O)c1cccc(F)c1 | 14 | . | -4 | 0 | 3 | -1
O=C1c2ccccc2C(=O)c2c1cccc2N(CCO)CCO | -20 | -4 | -27 | 13* | -13 | -2
COC(=O)Cn1c(=NC(=O)c2cc(-c3cccs3)nc3ccccc23)sc2cc(S(N)(=O)=O)ccc21 | . | . | -1 | 9.5* | 8 | .
CCOC(=O)Cn1c(=NC(=O)c2cc(-c3cccs3)nc3ccccc23)sc2cc(S(N)(=O)=O)ccc21 | -5 | . | . | . | 15 | -6

Compound profiles, from the list above. Screens in order: UUG fidelity, miR122 inh, EWS-Fli inh, F508del corr, LGR2 inh, PglD inh
`c1ccc2sc(NN=C3CCCCCC3)nc2c1` as listed: ., 12, 46, ., 55*, .
`COC(=O)Cn1c(=NC(=O)c2cc(-c3cccs3)nc3ccccc23)sc2cc(S(N)(=O)=O)ccc21` as listed: ., ., -1, 9.5*, 8, .

The list continues.
SMILES | UUG fidelity | miR122 inh | EWS-Fli inh | F508del corr | LGR2 inh | PglD inh
CCC(=O)N(C)C[C@@H]1Oc2cc(-c3ccc(F)cc3)ccc2S(=O)(=O)N([C@H](C)CO)C[C@H]1C | 13 | 5[16.7 µM] | 7 | 0 | 4 | 3
CCCn1nnnc1SCC(=O)Nc1cccc(NC(=O)c2ccco2)c1 | -51 | -2 | . | . | . | 6
Nc1c(C(=O)c2ccco2)oc2ccccc12 | . | . | -1 | 14* | 1 | .
O=C(C=Cc1ccccc1)c1c[nH]c2ccccc2c1=O | -8 | 41 | -24 | -10 | 31 | -6
Cc1[nH]c2ccccc2c(=O)c1C(=O)/C=C/c1ccccc1 | -14 | 2 | 49 | -12 | 74* | 2
C/C(=N\NC(=O)c1ccccc1O)C1C(=O)c2ccccc2C1=O | -10 | 119* | . | . | . | 0
Cn1ncc2c(O/N=C(\N)c3ccc(C(F)(F)F)cc3)ncnc21 | 19 | -33 | 68* | -4 | . | 6
Cc1ccc(C(=O)NNc2ncnc3c2cnn3C)cc1 | . | . | -16 | -1 | -6 | .
CC(=O)N1c2c(cc(Br)cc2S(=O)(=O)NCC2COc3ccccc3O2)CC1C (configuration not stated) | -3 | 120* | . | . | . | -1
COc1ccc(N(C(=O)Cc2cccs2)C(C(=O)NC2CCCC2)c2ccncc2)cc1OC (configuration not stated) | -10 | 2 | -4 | 1 | 3 | -2
C#CC(=O)N(c1cccc(OC)c1)C(C(=O)NC1CCCC1)c1cccs1 (configuration not stated) | -3 | -28 | 44 | -10 | 104* | 4
COc1ccc(C(C(=O)NC2CCCCC2)N(Cc2cccs2)C(=O)Cc2c[nH]c3ccccc23)cc1 (configuration not stated) | -10 | 65 | . | . | . | -4
Cc1cccc(N(C(=O)C(F)(F)F)C(C(=O)NC2CCCCC2)c2cccs2)c1 (configuration not stated) | -10 | 1 | . | . | 18 | 0
C#CC(=O)N(c1ccc(OC)c(OC)c1)C(C(=O)NC1CCCC1)c1cccs1 (configuration not stated) | -9 | -32 | 45 | -6 | 101* | 1
COc1cccc(CN(C(=O)Cc2c[nH]c3ccccc23)C(C(=O)NC2CCCCC2)c2cccs2)c1 (configuration not stated) | -17 | 240* | . | . | . | 1

Reprinted at random: three entries already listed
SMILES | UUG fidelity | miR122 inh | EWS-Fli inh | F508del corr | LGR2 inh | PglD inh
COc1ccc(C(C(=O)NC2CCCCC2)N(Cc2cccs2)C(=O)Cc2c[nH]c3ccccc23)cc1 (configuration not stated) | -10 | 65 | . | . | . | -4
Cc1cc(O)c(C(C)C)cc1C1(c2cc(C(C)C)c(O)cc2C)OC(=O)c2ccccc21 | -3 | 40 | 29 | 2 | 70* | 5
N#C[C@H]1[C@H](c2ccc(C#CC3CC3)cc2)[C@@H](CO)N1C(=O)c1cccc(F)c1 | 14 | . | -4 | 0 | 3 | -1

Later entries
SMILES | UUG fidelity | miR122 inh | EWS-Fli inh | F508del corr | LGR2 inh | PglD inh
COc1ccc(CNC(=O)C2Cc3c(-c4cccc(C(C)=O)c4)ccnc3O2)cc1OC (configuration not stated) | 7 | 0 | 24 | 0 | -19 | 2
O=C(NCc1cccs1)C1Cc2c(-c3ccc(Cl)cc3)ccnc2O1 (configuration not stated) | 6 | 3 | 70* | -1 | . | -1
CC(=O)c1cccc(-c2ccnc3c2CC(C(=O)NCc2cccs2)O3)c1 (configuration not stated) | -6 | 10 | 73* | 6 | -8 | 6
O=C(NCC1CC1)C1Cc2c(-c3ccc(Cl)cc3)ccnc2O1 (configuration not stated) | -11 | . | -1 | -2 | 2 | 5
CCOc1ccc(C(=O)Nc2cccc(-c3nc4ccccc4[nH]3)c2C)cc1[N+](=O)[O-] | -8 | -1 | 83* | . | -16 | -1
N#Cc1ccc(Oc2ncccn2)cc1 | . | . | 11 | 1 | 1 | .
C[C@H]1CN([C@@H](C)CO)C(=O)c2cc(NC(=O)CCCCCC(=O)Nc3ccccc3N)ccc2O[C@H]1CN(C)C | . | . | . | 3 | -3 | .
Cc1noc(C)c1S(=O)(=O)Nc1ccc2c(c1)C(=O)N([C@@H](C)CO)C[C@@H](C)[C@@H](CN(C)Cc1ccccc1)O2 | 11 | 11[16.7 µM] | -2 | 1 | -4 | -1
Cc1ccc([C@H]2N[C@]3(CCCN(Cc4ccc(C(F)(F)F)cc4)C3=O)[C@H]3C(=O)N(C)C(=O)[C@@H]23)cc1 | 7 | -1 | 3 | 1 | 9 | -6
O=C(C[C@@H]1CC[C@@H]2[C@H](COC[C@@H](O)CN2Cc2ccc(F)cc2)O1)N1CCc2ccccc2C1 | 18 | 42[16.7 µM] | 1 | 0 | 6 | 25*
O=C(C[C@H]1CC[C@H]2[C@@H](COC[C@@H](O)CN2Cc2ccc(F)cc2)O1)N1CCc2ccccc2C1 | 8 | 50[16.7 µM] | 7 | 1 | -22 | 20
COc1ccc(N=[N+]([O-])c2ccc(OC)cc2)cc1 | -27 | -3 | ? | 0 | 72* | -2
COc1ccc(S(=O)(=O)c2ccc(OC)cc2)cc1 | -22 | 13 | . | . | . | 6
